Assay results taken from patent publication US8865911B2, “Compounds and their use as BACE inhibitors” (Astrazeneca AB, priority 2010, dated 2014).
pIC50: −log10 of the molar value.

Amino acid sequences for entries named in this document (tags omitted). Residues count along the entry.
UniProt P56817, 22-460: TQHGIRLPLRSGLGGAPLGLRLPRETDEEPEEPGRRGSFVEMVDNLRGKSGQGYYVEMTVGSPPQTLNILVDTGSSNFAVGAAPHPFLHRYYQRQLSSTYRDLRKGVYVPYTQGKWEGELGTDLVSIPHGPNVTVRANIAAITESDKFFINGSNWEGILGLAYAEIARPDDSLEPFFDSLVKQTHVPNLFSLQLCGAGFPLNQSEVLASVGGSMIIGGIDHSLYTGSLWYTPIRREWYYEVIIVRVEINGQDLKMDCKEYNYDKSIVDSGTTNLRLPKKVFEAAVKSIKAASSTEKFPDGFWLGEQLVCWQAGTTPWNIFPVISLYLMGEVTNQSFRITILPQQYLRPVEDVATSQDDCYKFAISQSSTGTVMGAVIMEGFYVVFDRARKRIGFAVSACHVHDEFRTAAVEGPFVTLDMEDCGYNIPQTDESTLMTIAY

Key:
[1] = target: T1, human β-Secretase (Homo sapiens (Human), UniProt P56817); experiment: Diluted TR-FRET assay; assay type: biochemical; conditions: values marked ^a, 50 times less enzyme, 6.5 h reaction time at r.t. in the dark, read-out: IC50 in TR-FRET assay (IC50 from the diluted FRET assay)
Method: (§1) The β-secretase enzyme used in the TR-FRET is prepared as follows: The cDNA for the soluble part of the human β-Secretase (AA 1-AA 460) was cloned using the ASP2-Fc10-1-IRES-GFP-neoK mammalian expression vector. The gene was fused to the Fc domain of IgG1 (affinity tag) and stably cloned into HEK 293 cells.
The robotic systems Biomek FX and Velocity 11 were used for all liquid handling and the enzyme and substrate solutions were kept on ice until they were placed in the robotic system. Enzyme (9 μl) was added to the plate then 1 μl of compound in dimethylsulphoxide was added, mixed and pre-incubated for 10 minutes. […] The reaction was stopped with the addition of Stop solution (7 μl, NaAcetate, pH 9). […] The dimethylsulphoxide control, instead of test compound, defined the 100% activity level and 0% activity was defined by wells lacking enzyme (replaced with reaction buffer).

[2] = target: T1, human β-Secretase; experiment: TR-FRET assay; assay type: biochemical; conditions: sBACE-Fc, substrate (Europium)CEVNLDAEFK(Qsy7) 100 nM, pH4.5, 15 minutes at r.t.
Method: as §1
The robotic systems Biomek FX and Velocity 11 were used for all liquid handling and the enzyme and substrate solutions were kept on ice until they were placed in the robotic system. Enzyme (9 μl) was added to the plate then 1 μl of compound in dimethylsulphoxide was added, mixed and pre-incubated for 10 minutes. Substrate (10 μl) was then added, mixed and the reaction proceeded for 15 minutes at r.t. The reaction was stopped with the addition of Stop solution (7 μl, NaAcetate, pH 9). […] The dimethylsulphoxide control, instead of test compound, defined the 100% activity level and 0% activity was defined by wells lacking enzyme (replaced with reaction buffer).

| SMILES | pIC50 [1] | pIC50 [2] | also measured |
| --- | --- | --- | --- |
| CO[C@H]1CC[C@]2(CC1)Cc1ccc(-c3cc(Cl)cc(C#N)c3)cc1[C@@]21N=C(C)C(N)=N1 (single isomer, unassigned) [Example 20d Isomer 1] | 9.20 | – | – |
| CO[C@H]1CC[C@]2(CC1)Cc1ccc(-c3cc(F)cc(C#N)c3)cc1C21N=C(C)C(N)=N1 (single isomer, unassigned; isomer 1) [Example 76 Isomer 1, 3-[(1r,4r)-4″-amino-4-methoxy-5″-methyl-3′H-dispiro[cyclohexane-1,2′-indene-1′,2″-imidazol]-6′-yl]-5-fluorobenzonitrile] | – | – | pIC50 ([1]; listed as 76 Isomer 1): 8.47 |
| CC#Cc1cncc(-c2ccc3c(c2)C2(N=C(N)C(CC)=N2)[C@]2(CC[C@H](OC)CC2)C3)c1 (single isomer, unassigned) [Example 68 Isomer 1, (1r,4r)-5″-ethyl-4-methoxy-6′-[5-(prop-1-yn-1-yl)pyridin-3-yl]-3′H-dispiro[cyclohexane-1,2′-indene-1′,2″-imidazol]-4″-amine] | 8.92 | – | – |
| CC#Cc1cccc(-c2ccc3c(c2)C2(N=C(C)C(N)=N2)[C@]2(CC[C@H](OC)CC2)C3)c1 (stereo partly drawn) [Example 20z, (1r,4r)-4-Methoxy-5″-methyl-6′-[3-(prop-1-yn-1-yl)phenyl]-3′H-dispiro[cyclohexane-1,2′-indene-1′,2″-imidazol]-4″-amine] | 8.85 | – | – |
| CO[C@H]1CC[C@]2(CC1)Cc1ccc(-c3cc(Cl)cc(C#N)c3)cc1C21N=C(C)C(N)=N1 (stereo partly drawn) [Example 20d, 3-[(1r,4r)-4″-Amino-4-methoxy-5″-methyl-3′H-dispiro[cyclohexane-1,2′-indene-11′,2″-imidazol]-6′-yl]-5-chlorobenzonitrile] | 8.80 | – | – |
| CO[C@H]1CC[C@]2(CC1)Cc1ccc(OCCC(F)(F)F)cc1C21N=C(C)C(N)=N1 (stereo partly drawn) [Example 20u, (1r,4r)-4-methoxy-5″-methyl-6′-(3,3,3-trifluoropropoxy)-3′H-dispiro[cyclohexane-1,2′-indene-1′,2″-imidazol]-4″-amine] | – | 7.66 | – |
| CC1=NC2(N=C1N)c1cc(Br)ccc1CC21CCC(F)(F)CC1 (stereo not drawn) [Example 27, 6′-Bromo-4,4-difluoro-5″-methyl-3′H-dispiro[cyclohexane-1,2′-indene-1′,2″-imidazol]-4″-amine] | – | 5.75 | – |
| CC#Cc1cncc(-c2ccc3c(c2)C2(N=C(N)C(CC)=N2)[C@]2(CC[C@H](OC)CC2)C3)c1 (stereo partly drawn) [Example 67, (1r,4r)-5″-Ethyl-4-methoxy-6′-[5-(prop-1-yn-1-yl)pyridin-3-yl]-3′H-dispiro[cyclohexane-1,2′-indene-1′,2″-imidazol]-4″-amine] | 8.70 | – | – |
| CO[C@H]1CC[C@]2(CC1)Cc1ccc(-c3cc(F)cc(C#N)c3)cc1C21N=C(C)C(N)=N1 (single isomer, unassigned; isomer 2) [Example 76 Isomer 2, 3-[(1r,4r)-4″-amino-4-methoxy-5″-methyl-3′H-dispiro[cyclohexane-1,2′-indene-1′,2″-imidazol]-6′-yl]-5-fluorobenzonitrile] | – | 6.20 | – |
| CC#Cc1cncc(-c2ccc3c(c2)C2(N=C(C)C(N)=N2)C2(CCC(F)(F)CC2)C3)c1 (stereo not drawn) [Example 28h, 4,4-Difluoro-5″-methyl-6′-[5-(prop-1-yn-1-yl)pyridin-3-yl]-3′H-dispiro[cyclohexane-1,2′-indene-1′,2″-imidazol]-4″-amine] | 8.14 | – | – |
| COc1cccc(-c2ccc3c(c2)C2(CCO3)N=C(C)C(N)=N2)c1F (stereo not drawn) [Example 9, 6-(2-Fluoro-3-methoxyphenyl)-5′-methylspiro[chroman-4,2′-imidazol]-4′-amine] | – | 5.77 | – |
| CC#Cc1cncc(-c2ccc3c(c2)C2(N=C(N)C(CC)=N2)[C@]2(CC[C@H](OC)CC2)C3)c1 (single isomer, unassigned) [Example 68 Isomer 2, (1r,4r)-5″-ethyl-4-methoxy-6′-[5-(prop-1-yn-1-yl)pyridin-3-yl]-3′H-dispiro[cyclohexane-1,2′-indene-1′,2″-imidazol]-4″-amine] | – | 5.00 | – |

Further lines, with some results ahead:

| pIC50 [1] | pIC50 [2] | SMILES | also measured |
| --- | --- | --- | --- |
| – | 7.19 | CO[C@H]1CC[C@]2(CC1)Cc1ccc(-c3cccc(Cl)c3Cl)cc1[C@@]21N=C(C)C(N)=N1 [Example 104, (1r,1′R,4R)-6′-(2,3-dichlorophenyl)-4-methoxy-5″-methyl-3′H-dispiro[cyclohexane-1,2′-indene-1′,2″-imidazol]-4″-amine] | – |
| 8.30 | – | CC1=NC2(CC(C3CCOC(C)(C)C3)Oc3ccc(-c4cccc(Cl)c4)cc32)N=C1N (racemic) [Example 50 Isomeric mixture 2, 6-(3-Chlorophenyl)-2-(2,2-dimethyltetrahydro-2H-pyran-4-yl)-5′-methylspiro[chroman-4,2′-imidazol]-4′-amine] | – |
| – | 7.43 | CO[C@H]1CC[C@]2(CC1)Cc1ccc(-c3ccc4[nH]cc(C)c4c3)cc1C21N=C(C)C(N)=N1 (stereo partly drawn) [Example 121, (1r,4r)-4-Methoxy-5″-methyl-6′-(3-methyl-1H-indol-5-yl)-3′H-dispiro[cyclohexane-1,2′-indene-1′,2″-imidazol]-4″-amine] | – |
| – | 7.18 | CO[C@H]1CC[C@]2(CC1)Cc1ccc(-c3cncc(COCC(F)(F)F)c3)cc1C21N=C(C)C(N)=N1 (stereo partly drawn) [Example 82, (1r,4r)-4-Methoxy-5″-methyl-6′-{5-[(2,2,2-trifluoroethoxy)methyl]pyridin-3-yl}-3′H-dispiro[cyclohexane-1,2′-indene-1′,2″-imidazol]-4″-amine] | – |
| – | 7.70 | [2H]C([2H])([2H])O[C@H]1CC[C@]2(CC1)Cc1ccc(-c3cc(Cl)cc(C#N)c3)cc1C21N=C(C)C(N)=N1 (stereo partly drawn) [Example 125, 3-{(1r,4r)-4″-Amino-5″-methyl-4-[(^2H3)methyloxy]-3′H-dispiro[cyclohexane-1,2′-indene-1′,2″-imidazol]-6′-yl}-5-chlorobenzonitrile] | – |
| 8.48 | – | COc1cccc(-c2ccc3c(c2)[C@@]2(N=C(C)C(N)=N2)[C@]2(CC[C@H](OC)CC2)C3)c1F [Example 89, (1r, 1′R,4R)-6′-(2-Fluoro-3-methoxyphenyl)-4-methoxy-5″-methyl-3′H-dispiro[cyclohexane-1,2′-indene-1′,2″-imidazol]-4″-amine] | – |
| 7.66 | – | COCc1cccc(-c2ccc3c(c2)C2(N=C(C)C(N)=N2)[C@]2(CC[C@H](OC)CC2)C3)c1 (stereo partly drawn) [Example 80, (1r,4r)-4-Methoxy-6′-[3-(methoxymethyl)phenyl]-5″-methyl-3′H-dispiro[cyclohexane-1,2′-indene-1′,2″-imidazol]-4″-amine] | – |
| – | 7.64 | [2H]C([2H])([2H])O[C@H]1CC[C@]2(CC1)Cc1ccc(-c3cncc(Cl)c3)cc1C21N=C(C)C(N)=N1 (stereo partly drawn) [Example 119, (1r,4r)-6′-(5-Chloropyridin-3-yl)-5′-methyl-4-[(H3)methyloxy]-3′H-dispiro[cyclohexane-1,2′-indene-1′,2″-imidazol]-4″-amine] | – |
| – | 6.73 | CO[C@H]1CC[C@]2(CC1)Cc1ccc(C#N)cc1C21N=C(C)C(N)=N1 (stereo partly drawn) [Example 79, (1r,4r)-4″-Amino-4-methoxy-5″-methyl-3′H-dispiro[cyclohexane-1,2′-indene-1′,2″-imidazole]-6′-carbonitrile] | – |
| – | 7.59 | CO[C@H]1CC[C@]2(CC1)Cc1ccc(-c3cnc4[nH]cc(C)c4c3)cc1C21N=C(C)C(N)=N1 (stereo partly drawn) [Example 116, (1r,4r)-4-Methoxy-5″-methyl-6′-(3-methyl-1H-pyrrolo[2,3-b]pyridin-5-yl)-3′H-dispiro[cyclohexane-1,2′-indene-1′,2″-imidazol]-4″-amine] | – |
| – | 7.70 | CO[C@H]1CC[C@]2(CC1)Cc1ccc(OCC3CCC3)cc1C21N=C(C)C(N)=N1 (stereo partly drawn) [Example 126, (1r,4r)-6′-(Cyclobutylmethoxy)-4-methoxy-5″-methyl-3′H-dispiro[cyclohexane-1,2′-indene-1′,2″-imidazol]-4″-amine] | – |
| – | 7.66 | CO[C@H]1CC[C@]2(CC1)Cc1ccc(C#CC3CCC3)cc1C21N=C(C)C(N)=N1 (stereo partly drawn) [Example 112, (1r,4r)-6′-(Cyclobutylethynyl)-4-methoxy-5″-methyl-3′H-dispiro[cyclohexane-1,2′-indene-1′,2″-imidazol]-4″-amine] | – |
| – | 6.74 | CC1=NC2(CC3(CCCOC3)Oc3ccc(-c4ccc(F)c(Cl)c4)cc32)N=C1N (single isomer, unassigned) [Example 46b Isomer 1, 6′-(3-Chloro-4-fluorophenyl)-5-methyl-5″,6″-dihydro-4′H-dispiro[imidazole-2,4′-chromene-2′,3″-pyran]-4-amine] | – |
| – | 7.36 | CCO[C@H]1CC[C@]2(CC1)Cc1ccc(-c3cncc(C(F)(F)F)c3)cc1C21N=C(C)C(N)=N1 (stereo partly drawn) [Example 131, (1r,4r)-4-ethoxy-5′-methyl-6′-[5-(trifluoromethyl)pyridin-3-yl]-3′H-dispiro[cyclohexane-1,2′-indene-1′,2″-imidazol]-4″-amine] | – |
| – | 7.62 | CO[C@H]1CC[C@]2(CC1)Cc1ccc(C#CC(C)C)cc1C21N=C(C)C(N)=N1 (stereo partly drawn) [Example 113, (1r,4r)-4-Methoxy-5″-methyl-6′-(3-methylbut-1-yn-1-yl)-3′H-dispiro[cyclohexane-1,2′-indene-1′,2″-imidazol]-4″-amine] | – |
